This note sets out measurements from US20130196986A1 (priority 2010, published 2013).

Amino acid sequences for entries named in this document (tags omitted).
UniProt Q99572, whole entry: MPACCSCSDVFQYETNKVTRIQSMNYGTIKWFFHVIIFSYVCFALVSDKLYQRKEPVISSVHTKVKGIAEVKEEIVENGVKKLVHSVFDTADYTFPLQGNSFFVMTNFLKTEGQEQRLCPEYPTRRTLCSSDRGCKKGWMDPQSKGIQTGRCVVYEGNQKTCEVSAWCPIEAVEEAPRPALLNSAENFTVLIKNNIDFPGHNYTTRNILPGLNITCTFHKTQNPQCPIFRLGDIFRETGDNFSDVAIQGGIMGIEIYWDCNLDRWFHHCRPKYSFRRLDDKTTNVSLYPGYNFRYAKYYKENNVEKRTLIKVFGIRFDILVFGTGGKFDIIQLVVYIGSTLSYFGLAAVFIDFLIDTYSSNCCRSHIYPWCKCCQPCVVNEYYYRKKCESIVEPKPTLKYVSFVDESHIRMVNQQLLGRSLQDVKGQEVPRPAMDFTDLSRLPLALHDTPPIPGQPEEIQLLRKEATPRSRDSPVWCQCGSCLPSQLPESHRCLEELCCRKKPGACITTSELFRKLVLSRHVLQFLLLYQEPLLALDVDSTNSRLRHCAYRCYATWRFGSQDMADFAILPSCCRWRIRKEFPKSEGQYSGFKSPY

This assay concerns the target P2X7 receptor (Homo sapiens, UniProt Q99572). The assay is described as follows: Ca++ flux assay (FLIPR) in P2X7-HEK-293 cell line stably expressing the full length P2X7 receptor, Bz-ATP activation. Conditions: read-out: P2X7 Ca Flux hu IC50 nM; P2X7-HEK-293 cells; agonist Bz-ATP; fluorescence as total area over 90 seconds. As to the method:
The ability of Triazolopyrazinone Compounds to inhibit P2X7 function can be determined in Ca^++ flux assay using a P2X7-HEK-293 cell line stably expressing the full length P2X7 receptor. The assay protocol is as described in Cheewatrakoolpong et al., Biochem. Biophys. Res. Commun. 332:17-27 (2005) with minor modification, and is as summarized hereinafter. Briefly, cells were plated in poly-D-lysine-coated wells, and incubated at 37° C. for 24 hours. Cells were then incubated for 1 hour with a loading buffer which contains a dye sensitive to changes in Ca^++ concentration (lx Calcium Plus no wash dye from Molecular Devices, Sunnyvale, Calif.). The test compounds were added to the wells in the dye loading step. Plates containing the wells were transferred to a Fluorometric Imaging Plate Reader (Molecular Devices, Sunnyvale, Calif.). The cells were activated by the addition of the P2X7 receptor agonist 2′(3) —O-(4-benzoylbenzoyl)adenosine 5′-triphosphate (Bz-ATP from Sigma-Aldrich, St. Louis, Mo.), and the fluorescence was monitored for 90 seconds. The fluorescent signal was determined as the total area over the 90 second run time. Using this protocol, representative Triazolopyrazinone Compounds, compounds 1471 were tested. Tables 3 to 6 show the concentration at which 50% of the maximum response in the Ca^++ was inhibited (IC50) for each of the test compounds.

Consider `Cc1c(Cl)cccc1-n1ccn2c(SCc3cc(Br)cc(Br)c3)nnc2c1=O`, for which the IC50 was 522 nM. For the molecule `Cc1cccc(C)c1CSc1nnc2c(=O)n(-c3cccc(Cl)c3C)ccn12`, the IC50 is 245 nM.

A word on the IC50: it is the point on the concentration scale where inhibition reaches its midpoint.
